# Assay results as given in ChEMBL document CHEMBL3393026, “A selective small molecule NOP (ORL-1 receptor) partial agonist for the treatment of anxiety” (Bioorg Med Chem Lett, 2015).
# Tested on: HEK293
# Experiment: Selectivity ratio of IC50 for human kappa opioid receptor expressed in HEK293 cells to human ORL1 expressed in HEK293 cells
row,Structure (SMILES),Ratio IC50
1,CCCCN(Cc1ccccc1)C[C@H](O)CN1CN(c2ccc(F)cc2)C2(CCN(CC3CCCCCCC3)CC2)C1=O,7
2,COc1ccc(CCNC[C@H](O)CN2CN(c3ccc(F)cc3)C3(CCN(CC4CCCCCCC4)CC3)C2=O)cc1OC,23

# Tested on: HEK293
# Experiment: Selectivity ratio of IC50 for human Mu opioid receptor expressed in HEK293 cells to human ORL1 expressed in HEK293 cells
row,Structure (SMILES),Ratio IC50
1,COc1ccc(CCOC[C@H](O)CN2CN(c3ccc(F)cc3)C3(CCN(CC4CCCCCCC4)CC3)C2=O)cc1OC,28
2,O=C1N(C[C@@H](O)CNCc2cccs2)CN(c2ccccc2)C12CCN(CCc1ccccc1-c1cccs1)CC2,0.18
3,CCCCN(Cc1ccccc1)C[C@H](O)CN1CN(c2ccc(F)cc2)C2(CCN(CC3CCCCCCC3)CC2)C1=O,35
4,COc1ccc(CCNC[C@@H](O)CN2CN(c3ccccc3)C3(CCN(CCc4ccccc4-c4cccs4)CC3)C2=O)cc1OC,20.4
5,CCCCN(Cc1ccccc1)C[C@H](O)CN1CN(c2ccccc2)C2(CCN(CCc3ccccc3-c3cccs3)CC2)C1=O,0.36
6,CC(C)(C)NC[C@@H](O)CN1CN(c2ccccc2)C2(CCN(CCc3ccccc3-c3cccs3)CC2)C1=O,1.4
7,CCCCN(Cc1ccccc1)C[C@@H](O)CN1CN(c2ccccc2)C2(CCN(CCc3ccccc3-c3cccs3)CC2)C1=O,0.28
8,COc1ccc(CCNC[C@H](O)CN2CN(c3ccc(F)cc3)C3(CCN(CC4CCCCCCC4)CC3)C2=O)cc1OC,112
9,COc1ccc(CNC[C@H](O)CN2CN(c3ccccc3)C3(CCN(CCc4ccccc4-c4cccs4)CC3)C2=O)cc1,0.5
10,Cc1ccc(CN(C[C@H](O)CN2CN(c3ccc(F)cc3)C3(CCN(CC4CCCCCCC4)CC3)C2=O)C(=O)[C@H](N)C(C)C)cc1,46
11,Cc1ccccc1CNC[C@@H](O)CN1CN(c2ccccc2)C2(CCN(CCc3ccccc3-c3cccs3)CC2)C1=O,4
12,Cc1ccccc1CNC[C@H](O)CN1CN(c2ccccc2)C2(CCN(CCc3ccccc3-c3cccs3)CC2)C1=O,4.9
13,COc1ccc(CNC[C@@H](O)CN2CN(c3ccccc3)C3(CCN(CCc4ccccc4-c4cccs4)CC3)C2=O)cc1,26
14,Cc1cccc(SC[C@H](O)CN2CN(c3ccc(F)cc3)C3(CCN(CC4CCCCCCC4)CC3)C2=O)c1,14
15,O=C1N(C[C@H](O)CNCc2cccs2)CN(c2ccccc2)C12CCN(CCc1ccccc1-c1cccs1)CC2,10
